Source: patent publication US20200080076A1, “Expressed Barcode Libraries and Uses Thereof” (The Broad Institute, Inc., priority 2018, published 2020)

System: Watermelon-transduced PC-9 cells
Assay: Sensitivity of Watermelon-transduced PC-9 cells to EGFR-TKIs, number of mCherry objects
Type: cell-based
Conditions: varying concentrations (FIGS. 6B and 6C)
Description: FIGS. 6A-6D show the modeling of non-inherited drug resistance of PC-9 cells to EGFR tyrosine kinase inhibitors (EGFR-TKI).

## COc1cc2ncnc(Nc3ccc(F)c(Cl)c3)c2cc1OCCCN1CCOCC1 [gefitinib]
  sensitivity of cells to EGFR-TKI (number of mCherry objects): sensitive
